Assay results as given in BindingDB's records for 19121582.

The chains behind the UniProt entries cited, without tags or fusion partners. Residues count along the entry.
UniProt P22748, 19-284 limits assumed: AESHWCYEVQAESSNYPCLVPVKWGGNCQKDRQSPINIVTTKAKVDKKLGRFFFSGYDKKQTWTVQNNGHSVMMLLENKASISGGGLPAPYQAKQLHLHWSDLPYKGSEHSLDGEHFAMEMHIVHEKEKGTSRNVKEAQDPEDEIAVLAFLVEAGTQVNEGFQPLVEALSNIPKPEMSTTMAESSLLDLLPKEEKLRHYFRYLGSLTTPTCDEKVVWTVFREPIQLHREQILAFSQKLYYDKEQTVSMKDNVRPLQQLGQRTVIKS

Target: Carbonic anhydrase 4 (Homo sapiens, UniProt P22748)

SMILES: O=[As](O)(O)c1ccccc1
- Ki: 13.9 mM
